Experimental findings from patent publication US20210253598A1, “ARYL ANNULATED MACROCYCLIC INDOLE DERIVATIVES” (priority 2017, published 2021) are described below.

By UniProt entry, the sequences of proteins in these tests, tags left out. Residues count along the entry.
UniProt Q07817, 1-212: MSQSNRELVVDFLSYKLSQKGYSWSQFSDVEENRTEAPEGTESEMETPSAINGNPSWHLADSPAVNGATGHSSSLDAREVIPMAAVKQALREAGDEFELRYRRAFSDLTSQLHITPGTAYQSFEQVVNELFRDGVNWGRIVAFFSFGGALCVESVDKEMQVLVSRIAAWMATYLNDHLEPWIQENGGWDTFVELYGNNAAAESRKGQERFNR
UniProt P10415, 1-211: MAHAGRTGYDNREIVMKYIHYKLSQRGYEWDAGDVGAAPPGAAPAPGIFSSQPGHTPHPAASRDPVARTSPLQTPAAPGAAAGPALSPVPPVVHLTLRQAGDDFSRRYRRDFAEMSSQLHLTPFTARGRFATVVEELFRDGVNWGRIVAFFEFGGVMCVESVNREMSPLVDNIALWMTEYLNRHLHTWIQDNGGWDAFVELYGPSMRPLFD

Data set [1] has as its target T1, MCL-1 (Homo sapiens, UniProt Q07820, K194A/K197A/R201A). The experiment in a line: Protein-protein interaction assay MCL-1/Noxa BH3 peptide, TR-FRET (MCL-1 assay, Assay 1). The class given is binding. On the technique in general: In TR-FRET formats the signal depends on donor and acceptor labels being close together.
For data set [2], the system named is SUDHL5. The experiment in a line: Anti-proliferative effect in SUDHL5 cells, CellTiter-Glo (Assay 7). The class given is cell-based.
The subject of data set [3] is SUDHL10. The experiment in a line: Induction of caspase-3/7 activity in SUDHL10 cells (Assay 4). The data set is classed as cell-based.
The next data set concerns MV-4-11. The experiment in a line: Anti-proliferative effect in MV-4-11 cells, CellTiter-Glo (Assay 7). In general terms: ATP-based viability assays read luminescence as a measure of living cells.
Data set [4] has as its system SUDHL5. The experiment in a line: Induction of cytotoxicity in SUDHL5 cells, CellTiter-Glo (Assay 6). The class given is cell-based.
Data set [5] has as its system SUDHL5. The experiment in a line: Induction of caspase-3/7 activity in SUDHL5 cells (Assay 4). The data set is classed as cell-based.
For data set [6], the system named is SUDHL10. The experiment in a line: Induction of cytotoxicity in SUDHL10 cells, CellTiter-Glo (Assay 6).
The next data set concerns A2780. The experiment in a line: Anti-proliferative effect in A2780 cells, CellTiter-Glo (Assay 7).
The subject of another data set is AMO-1. The experiment in a line: Anti-proliferative effect in AMO-1 cells, CellTiter-Glo (Assay 7).
In a further data set the target is BCL-XL (Homo sapiens, UniProt Q07817). The experiment in a line: Protein-protein interaction assay BCL-XL/Bad BH3 peptide, TR-FRET (BCL-XL assay, Assay 2). The class given is binding. Particulars: read-out: BCL-XL Assay [M] (median), His-BCL-XL / Bad BH3 peptide, tested form: N-ethylethanamine (diethylamine) salt.
The test system of data set [7] is SUDHL10. The experiment in a line: Anti-proliferative effect in SUDHL10 cells, CellTiter-Glo (Assay 7). Particulars: read-out: Antiproli SUDHL10 [M] (median), SUDHL10, 72 hours incubation, tested form: N-ethylethanamine (diethylamine) salt.
The target of the next data set is BCL-2 (Homo sapiens, UniProt P10415). The experiment in a line: Protein-protein interaction assay BCL-2/Bad BH3 peptide, TR-FRET (BCL-2 assay, Assay 3). The class given is binding. To be noted: read-out: BCL-2 Assay [M] (median), His-BCL-2 / Bad BH3 peptide, tested form: N-ethylethanamine (diethylamine) salt.
Data set [8] concerns the target T1, MCL-1. The experiment in a line: Protein-compound interaction assay, surface plasmon resonance (SPR assay, Assay 8). The data set is classed as binding. Particulars: immobilized MBP-MCL-1, 25° C., geometric mean, tested form: N-ethylethanamine (diethylamine) salt. A general note: SPR reads the build-up and loss of mass on a sensor chip optically.
Another data set has as its target MCL1 protein (Homo sapiens, UniProt Q07820). The experiment in a line: PIxEL: protein-protein interaction in permeabilized cells by ELISA (Assay 5). Particulars: read-out: PIxEL [M] (median), permeabilized RKO cells, biotin-BIM BH3 peptide 0.2 μM, serum free, tested form: N-ethylethanamine (diethylamine) salt. The class given is cell-based.
Where [9] appears, read: read-out: MCL-1 Assay [M] (median), MBP-MCL-1 / Noxa BH3 peptide.
Where [10] appears, read: read-out: Antiproli SUDHL5 [M] (median), SUDHL5, 72 hours incubation.
Where [11] appears, read: read-out: Caspase SUDHL10 [M] (median), SUDHL10, 3 hours treatment, Caspase-Glo 3/7.
Where [12] appears, read: read-out: Cytotox SUDHL5 [M] (median), SUDHL5, 5 hours incubation.
The mark [13] stands for this setting: read-out: Caspase SUDHL5 [M] (median), SUDHL5, 3 hours treatment, Caspase-Glo 3/7.
Setting [14] is: read-out: Cytotox SUDHL10 [M] (median), SUDHL10, 5 hours incubation.
Setting [15] is: read-out: Antiproli A2780, A2780, 72 hours incubation, several values per example.
The mark [16] stands for this setting: read-out: MCL-1 Assay [M] (median), MBP-MCL-1 / Noxa BH3 peptide, tested form: N-ethylethanamine (diethylamine) salt.
Where [17] appears, read: read-out: Antiproli SUDHL5 [M] (median), SUDHL5, 72 hours incubation, tested form: N-ethylethanamine (diethylamine) salt.
The mark [18] stands for this setting: read-out: Caspase SUDHL10 [M] (median), SUDHL10, 3 hours treatment, Caspase-Glo 3/7, tested form: N-ethylethanamine (diethylamine) salt.
[19] abbreviates: read-out: Antiproli MV-4-11, MV-4-11, 72 hours incubation, several values per example, tested form: N-ethylethanamine (diethylamine) salt.
Where [20] appears, read: read-out: Cytotox SUDHL5 [M] (median), SUDHL5, 5 hours incubation, tested form: N-ethylethanamine (diethylamine) salt.
Setting [21] is: read-out: Caspase SUDHL5 [M] (median), SUDHL5, 3 hours treatment, Caspase-Glo 3/7, tested form: N-ethylethanamine (diethylamine) salt.
The mark [22] stands for this setting: read-out: Antiproli A2780, A2780, 72 hours incubation, several values per example, tested form: N-ethylethanamine (diethylamine) salt.

Where “and” joins values, the source holds several entries; their conditions need not be identical. Equal values may be shown once. Read-outs that look alike come from different tables or passages of the source.

As for `CCc1nn(CCN2CCOCC2)c2c1-c1c(Cl)ccc3c(CCCOc4cccc5ccccc45)c(C(=O)O)n(c13)Cc1ccccc1COC2`, the IC50 at MCL-1 [1] (setting [9]) is 1.7e-09 M; in the data set on SUDHL5 [2] (setting [10]), 1.9e-06 M; with MV-4-11 (read-out: Antiproli MV-4-11, MV-4-11, 72 hours incubation, several values per example), 3980 nM and 4970 nM; in the data set on SUDHL5 [4] (setting [12]), 1.6e-06 M; in the data set with SUDHL10 [6] (setting [14]), 3.5e-06 M; with A2780 (setting [15]), 9040 nM and 6670 nM. Moreover, the EC50 in the data set with SUDHL10 [3] (setting [11]) is 4.9e-06 M; in the data set on SUDHL5 [5] (setting [13]) it was 1.9e-06 M.
Take `Cc1c2c(nn1C)COCc1ncccc1Cn1c(C(=O)O)c(CCCOc3cccc4ccccc34)c3ccc(Cl)c-2c31`: the IC50 at MCL-1 [1] (setting [9]) is 1.1e-09 M; in the data set with AMO-1 (read-out: Antiproli AMO-1, AMO-1, 72 hours incubation, several values per example), 11400 nM; in the data set with SUDHL5 [2] (setting [10]) it was 1.5e-06 M; with SUDHL5 [4] (setting [12]), 1.7e-06 M; in the data set with SUDHL10 [6] (setting [14]), 3.5e-06 M; in the data set with A2780 (setting [15]), 19500 nM. Moreover, the EC50 in the data set with SUDHL10 [3] (setting [11]) turned out to be 3e-06 M; in the data set on SUDHL5 [5] (setting [13]), 1.5e-06 M.
On to `CCc1nn(CCN2CCOCC2)c2c1-c1c(Cl)ccc3c(CCCOc4cccc5ccccc45)c(C(=O)O)n(c13)Cc1ccccc1COC2` [Example 34], for which the IC50 on MCL-1 [1] (setting [16]) was 6.6e-10 M; in the data set on AMO-1 (read-out: Antiproli AMO-1, AMO-1, 72 hours incubation, several values per example, tested form: N-ethylethanamine (diethylamine) salt), 2950 nM; on BCL-XL, above 2e-05 M; in the data set with SUDHL10 [7], 1.2e-06 M; in the data set on SUDHL5 [2] (setting [17]), 4.8e-07 M; in the data set on MV-4-11 (setting [19]), 1730 nM and 1510 nM and 1950 nM. Further, the IC50 at BCL-2 is above 2e-05 M; with SUDHL5 [4] (setting [20]), 6.8e-07 M; on MCL1 protein, 1.11e-06 M; in the data set on SUDHL10 [6] (read-out: Cytotox SUDHL10 [M] (median), SUDHL10, 5 hours incubation, tested form: N-ethylethanamine (diethylamine) salt), 1.4e-06 M; in the data set on A2780 (setting [22]), 5030 nM and 4680 nM. Besides, the EC50 amounted to 1e-06 M in the data set on SUDHL10 [3] (setting [18]) and 4.9e-07 M in the data set with SUDHL5 [5] (setting [21]). In addition, the equilibrium dissociation constant (Kd) on MCL-1 [8] is 4 nM. Further, the off-rate constant (koff) at MCL-1 [8] was 0.008 s⁻¹. For the same compound, the “kon [1/M 1/s]” value at MCL-1 [8] is reported as 2.0E6 1/M 1/s.
Regarding `CCc1nn(CCN2CCOCC2)c2c1-c1c(Cl)ccc3c(CCCOc4cccc5ccccc45)c(C(=O)O)n(c13)Cc1ccccc1COC2` [Example 35], the IC50 at MCL-1 [1] (setting [16]) is 5.4e-09 M; in the data set on SUDHL5 [2] (setting [17]), 7.1e-06 M; in the data set on MV-4-11 (setting [19]), 11900 nM; with SUDHL5 [4] (setting [20]), 7e-06 M; at MCL1 protein, 1.85e-05 M; with A2780 (setting [22]), 9210 nM. The EC50 was 1.3e-05 M in the data set on SUDHL10 [3] (setting [18]) and 4.2e-06 M in the data set with SUDHL5 [5] (setting [21]). The Kd on MCL-1 [8] was determined as 110 nM. At MCL-1 [8], the “koff” value is 0.066 s⁻¹. Also, at MCL-1 [8], the “kon [1/M 1/s]” value was 5.8E5 1/M 1/s.

One may read the Kd as the equilibrium constant for the complex coming apart. By koff is commonly meant a measure of how fast the partners let go of each other.
